This note sets out measurements from ChEMBL document CHEMBL1159080, “Discovery of cyclicsulfonamide derivatives as 11 beta-hydroxysteroid dehydrogenase 1 inhibitors” (Bioorg Med Chem Lett, 2010).

By UniProt entry, the sequences of proteins in these tests, tags left out. Where a name states a change or a piece, a line headed by the entry shows the natural chain unless it says otherwise.
UniProt P28845: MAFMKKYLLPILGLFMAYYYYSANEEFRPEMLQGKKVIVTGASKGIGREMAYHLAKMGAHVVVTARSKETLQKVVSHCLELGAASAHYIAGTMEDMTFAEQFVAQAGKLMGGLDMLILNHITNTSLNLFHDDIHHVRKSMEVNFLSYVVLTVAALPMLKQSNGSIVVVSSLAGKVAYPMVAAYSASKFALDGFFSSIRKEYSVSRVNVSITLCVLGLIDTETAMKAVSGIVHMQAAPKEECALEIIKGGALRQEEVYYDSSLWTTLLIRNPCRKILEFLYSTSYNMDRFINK

The target in this test is 11-beta-hydroxysteroid dehydrogenase 1 (Homo sapiens, UniProt P28845). The experiment in a line: Inhibition of 11beta-HSD1 in human microsomes by HTRF cortisol assay. More on the design: species or system Microsome. On the technique in general: Time-resolved FRET reads energy transfer from a long-lived donor to a nearby acceptor.

Usually IC50 stands for the point on the concentration scale where inhibition reaches its midpoint. Low readings indicate greater potency in that assay, high ones weaker potency in that assay.

The structures appear in SMILES notation.

For `CC1(C)[C@@H](OC(=O)CCC(=O)O)CC[C@]2(C)[C@H]3C(=O)C=C4[C@@H]5C[C@@](C)(C(=O)O)CC[C@]5(C)CC[C@@]4(C)[C@]3(C)CC[C@@H]12` [CARBENOXOLONE], the IC50 was 500 nM.
